# Apparent affinities of Ab-95 variants for a coronavirus HR2 peptide

Antigen: PDVDLGDISGINAS, a 14-residue peptide of the SARS-CoV-2 spike HR2 region.

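Phage display of a naive human antibody library on the peptide gave the parent. In library AAYL52, one, two or three CDR residues were substituted; doubles and triples were drawn at random. The assay is AlphaSeq: two haploid yeast populations carry antibody and antigen on their surface. Pairs that bind mate more often; barcode pairs of the diploids are counted by sequencing. Read counts were normalised to the haploid input and turned into Kd by a linear fit to BCL2-family pairs of known affinity, for each replicate. There are three technical replicates.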

The variants keep the heavy chain, the linker and the frameworks of Ab-95 (scFv order VH, a 15-residue (Gly4Ser)3 linker, VL).
VH: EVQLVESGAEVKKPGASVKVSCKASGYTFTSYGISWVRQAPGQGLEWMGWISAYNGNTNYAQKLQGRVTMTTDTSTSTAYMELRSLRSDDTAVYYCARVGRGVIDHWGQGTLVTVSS
VL: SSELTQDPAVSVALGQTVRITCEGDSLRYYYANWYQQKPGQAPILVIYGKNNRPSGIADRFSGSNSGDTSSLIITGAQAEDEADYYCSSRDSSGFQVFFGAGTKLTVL

Positions count from residue 1 of the parent VL; Y29H puts H in place of Y. Scale: log10 of Kd in nM, estimated from mating counts; low values are strong binders. The mean shown is taken over the replicates in which the pair was detected. An entry "ND" has no value in the source: the pair was not observed among the diploids in that replicate. This suggests poor binding but is not conclusive.

Variant Y29H/P54T/Q96E showed 2.47, 2.74, 2.23 (mean 2.48; controls 3 of 9).
Variant E23T/V97G showed ND, ND, 2.79 (controls 0 of 9).
Variant R28V/A32K/S93L showed 3.29, 3.51, 3.35 (mean 3.38; controls 0 of 9).
Variant D25M/D91R/F95S showed 3.19, 3.77, 3.00 (mean 3.32; controls 4 of 9).
Variant G49H/P54W/S93D showed ND, ND, ND (controls 1 of 9).
Variant R28G/S55W showed 2.32, 2.20, 2.35 (mean 2.29; controls 5 of 9).
Variant Y30F/N51K/F98G showed ND, ND, ND (controls 1 of 9).
Variant R28C/Y31V/N51H showed 3.87, 4.80, ND (mean 4.33; controls 2 of 9).
Variant N51D/V97I/F98G showed 2.54, 2.51, 3.00 (mean 2.68; controls 3 of 9).
Variant G49R/N51S/S92P showed ND, ND, ND (controls 0 of 9).
Variant Y29C/S55M/S88M showed 3.50, 3.00, 2.81 (mean 3.10; controls 3 of 9).
Variant A32K/N51Y/S89G showed 4.32, 5.01, ND (mean 4.66; controls 4 of 9).
Variant Y29F/G49R/R90P showed ND, 5.09, ND (controls 3 of 9).
Variant N33T/R90H/S92F showed ND, 3.53, ND (controls 3 of 9).
Variant Y29S/S88V/G94Y showed ND, ND, ND (controls 1 of 9).
Variant N33R/N51Y/V97P showed ND, ND, 3.51 (controls 2 of 9).
Variant K50C/R53T/G94F showed 4.08, 3.70, 4.42 (mean 4.07; controls 7 of 9).
Variant P54C/R90P showed ND, ND, ND (controls 2 of 9).
Variant G24I/Y29W/Y31K showed 3.29, 4.24, 3.08 (mean 3.54; controls 2 of 9).
Variant Y31E/N33K showed 2.92, 4.86, 3.71 (mean 3.83; controls 1 of 9).
Variant S89E/R90P/G94F showed 2.45, 2.78, 2.34 (mean 2.52; controls 5 of 9).
Variant S26C/Y31S/F98V showed 3.19, 4.18, 2.85 (mean 3.40; controls 2 of 9).
Variant S55P/S92I showed 3.15, 3.13, 2.59 (mean 2.96; controls 2 of 9).
Variant G24Q/S88H/F95L showed 3.22, ND, 3.13 (mean 3.18; controls 2 of 9).
Variant S26R/Y31F showed ND, ND, ND (controls 2 of 9).
Variant E23P/N51F/S92Q showed 2.33, 2.68, 2.91 (mean 2.64; controls 0 of 9).
Variant N33E/N51E/P54M showed 3.77, 4.49, ND (mean 4.13; controls 4 of 9).
Variant E23H/L27Q/S93A showed 3.68, 2.68, 3.81 (mean 3.39; controls 3 of 9).
Variant S26G/N52W/R90I showed ND, ND, ND (controls 0 of 9).
Variant L27W/R28M/K50L showed 4.59, ND, ND (controls 4 of 9).
Variant G24R/S88A/R90V showed ND, 3.97, ND (controls 2 of 9).
Variant S88K/S89Q/S93G showed 2.40, 4.12, 3.62 (mean 3.38; controls 2 of 9).
Variant Y31H/S93R/F95N showed 2.92, 2.84, 2.78 (mean 2.85; controls 2 of 9).
Variant S26K/G49S/S92I showed 3.76, 5.02, ND (mean 4.39; controls 0 of 9).
Variant G49E/S92T/G94V showed ND, 2.91, ND (controls 4 of 9).
Variant Y30S/S89M/F95G showed 1.35, 1.25, 1.17 (mean 1.26; controls 2 of 9).
Variant A32Q/G49D/R53C showed 2.37, 2.57, 2.24 (mean 2.39; controls 4 of 9).
Variant E23Y/S26N/S93I showed 3.25, 4.09, 2.34 (mean 3.23; controls 4 of 9).

The closing 3 entries, repeated:

changes	log10 Kd (nM) by replicate	mean, log10 nM	empty controls
Y30S/S89M/F95G	1.35, 1.25, 1.17	1.26	2 of 9
A32Q/G49D/R53C	2.37, 2.57, 2.24	2.39	4 of 9
E23Y/S26N/S93I	3.25, 4.09, 2.34	3.23	4 of 9

Nonspecific signal, from three strains lacking the peptide, appeared in 28% of pairings of library AAYL52, centred on 3.91 (5% of these signals below 2.90); values are not corrected for it. For each scFv, signals with the empty controls are counted beside the result. For reference, the parent read 2.31 as the reference entry and 2.25 as a member of this library.

Values reported by Engelhart et al. 2022, doi:10.1038/s41597-022-01779-4 (FLAb copy).